Results reported in BindingDB's records for 21406034.

By UniProt entry, the sequences of proteins in these tests, tags left out. Residues count along the entry.
UniProt P22303, 32-614 limits assumed: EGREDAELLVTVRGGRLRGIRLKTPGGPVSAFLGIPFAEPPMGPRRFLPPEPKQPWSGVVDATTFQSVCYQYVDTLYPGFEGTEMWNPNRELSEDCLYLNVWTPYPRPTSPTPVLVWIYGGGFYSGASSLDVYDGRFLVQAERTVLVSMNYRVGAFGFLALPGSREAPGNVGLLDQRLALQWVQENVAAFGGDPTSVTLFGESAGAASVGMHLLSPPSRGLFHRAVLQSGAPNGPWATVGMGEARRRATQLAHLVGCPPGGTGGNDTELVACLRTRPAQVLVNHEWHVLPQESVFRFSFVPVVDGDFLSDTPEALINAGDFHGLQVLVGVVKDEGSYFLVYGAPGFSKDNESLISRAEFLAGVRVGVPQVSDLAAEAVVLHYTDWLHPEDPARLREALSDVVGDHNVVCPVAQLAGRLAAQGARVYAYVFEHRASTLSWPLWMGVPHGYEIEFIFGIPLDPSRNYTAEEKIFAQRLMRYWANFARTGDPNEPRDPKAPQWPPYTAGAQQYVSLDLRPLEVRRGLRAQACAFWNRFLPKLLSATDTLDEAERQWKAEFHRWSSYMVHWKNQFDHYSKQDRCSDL
UniProt P06276, 29-602 limits assumed: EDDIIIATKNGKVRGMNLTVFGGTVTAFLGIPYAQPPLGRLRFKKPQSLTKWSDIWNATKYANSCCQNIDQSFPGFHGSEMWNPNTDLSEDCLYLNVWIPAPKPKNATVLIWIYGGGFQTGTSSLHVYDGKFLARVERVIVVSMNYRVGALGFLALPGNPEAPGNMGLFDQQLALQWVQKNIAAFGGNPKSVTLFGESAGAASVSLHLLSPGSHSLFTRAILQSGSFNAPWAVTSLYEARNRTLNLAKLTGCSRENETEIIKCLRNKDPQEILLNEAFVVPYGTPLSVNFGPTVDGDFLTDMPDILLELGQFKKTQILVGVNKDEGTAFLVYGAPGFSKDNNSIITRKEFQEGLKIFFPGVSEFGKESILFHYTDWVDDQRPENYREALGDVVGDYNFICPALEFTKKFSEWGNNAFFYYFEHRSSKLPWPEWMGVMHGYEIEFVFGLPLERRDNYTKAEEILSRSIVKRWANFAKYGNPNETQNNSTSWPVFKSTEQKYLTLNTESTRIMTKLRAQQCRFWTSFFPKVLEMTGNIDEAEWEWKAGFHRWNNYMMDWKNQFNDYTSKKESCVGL

Legend:
[1] = molecular target: Acetylcholinesterase (Homo sapiens, UniProt P22303); test: In Vitro Assay; conditions: pH 7.4
[2] = molecular target: Cholinesterase (Homo sapiens, UniProt P06276); test: In Vitro Assay; conditions: pH 7.4

Row | Structure (SMILES) | IC50 [1] [µM] | IC50 [2] [µM]
1 | Cc1cc[n+](C/C=C/C[n+]2ccc(C)cc2)cc1 | 0.9 | –
2 | O=C(O)c1cc[n+](C/C=C/C[n+]2ccc(C(=O)O)cc2)cc1 | 3870 | –
3 | Oc1cc[n+](C/C=C/C[n+]2ccc(O)cc2)cc1 | 509 | –
4 | CC(C)(C)c1cc[n+](C/C=C/C[n+]2ccc(C(C)(C)C)cc2)cc1 | 40 | 169
5 | CCc1cc[n+](C/C=C/C[n+]2ccc(CC)cc2)cc1 | 212 | 850
6 | CN(C)c1cc[n+](C/C=C/C[n+]2ccc(N(C)C)cc2)cc1 | 1.2 | 17
7 | CC(=O)c1cc[n+](C/C=C/C[n+]2ccc(C(C)=O)cc2)cc1 | 139 | 324
8 | OCCCc1cc[n+](C/C=C/C[n+]2ccc(CCCO)cc2)cc1 | 54 | 1440
9 | COC(=O)c1cc[n+](C/C=C/C[n+]2ccc(C(=O)OC)cc2)cc1 | 401 | –
10 | C(=C\C[n+]1ccc(CCCc2ccccc2)cc1)/C[n+]1ccc(CCCc2ccccc2)cc1 | 0.05 | 22
11 | O/N=C/c1cc[n+](C/C=C/C[n+]2ccc(/C=N/O)cc2)cc1 | – | 1620
12 | OCc1cc[n+](C/C=C/C[n+]2ccc(CO)cc2)cc1 | 799 | 4510
13 | NC(=O)c1cc[n+](C/C=C/C[n+]2ccc(C(N)=O)cc2)cc1 | 1200 | –
14 | O=[N+]([O-])c1ccc(Cc2cc[n+](C/C=C/C[n+]3ccc(Cc4ccc([N+](=O)[O-])cc4)cc3)cc2)cc1 | 73 | 18
15 | C(=C\C[n+]1ccc(-c2ccccc2)cc1)/C[n+]1ccc(-c2ccccc2)cc1 | 71 | 18
16 | N#Cc1cc[n+](C/C=C/C[n+]2ccc(C#N)cc2)cc1 | 70 | 514
